Reference: PMC6298601 (Biochemical pharmacology, 2018)
Structures can show the parent of a compound that is named as a salt.

By UniProt entry, the sequences of proteins in these tests, tags left out.
UniProt P27338, whole entry: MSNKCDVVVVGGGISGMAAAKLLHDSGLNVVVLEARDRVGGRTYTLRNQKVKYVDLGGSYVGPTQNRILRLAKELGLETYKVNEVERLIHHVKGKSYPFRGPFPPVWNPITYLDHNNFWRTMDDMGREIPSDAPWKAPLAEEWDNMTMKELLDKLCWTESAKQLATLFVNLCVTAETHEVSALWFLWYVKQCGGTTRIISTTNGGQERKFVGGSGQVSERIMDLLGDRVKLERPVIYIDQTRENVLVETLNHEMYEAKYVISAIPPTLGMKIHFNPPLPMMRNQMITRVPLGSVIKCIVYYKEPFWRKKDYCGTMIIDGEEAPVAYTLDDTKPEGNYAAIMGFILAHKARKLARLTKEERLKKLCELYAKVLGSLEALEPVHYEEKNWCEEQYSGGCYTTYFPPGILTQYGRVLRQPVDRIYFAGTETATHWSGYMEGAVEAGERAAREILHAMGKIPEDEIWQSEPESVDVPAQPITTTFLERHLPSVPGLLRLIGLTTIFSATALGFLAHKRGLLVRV

Key:
[1] = biological target: T1, recombinant human MAO-B (Homo sapiens, UniProt P27338); type: biochemical; conditions: Lineweaver-Burk analysis and dialysis
[2] = biological target: T1, recombinant human MAO-B; type: binding; conditions: equilibrium dialysis overnight

MAO-B Type of Inhibition [1]: Mixed / Irreversible
nature of binding with MAO-B (reversibility) [2]: irreversible inhibition/binding
Structure (SMILES): NNCCc1ccccc1 [Phenelzine, phenelzine sulfate, reference compound]
